# Literature values as cited in paper PMC10609940, “Systemic Dendrimer-Peptide Therapies for Wet Age-Related Macular Degeneration” (Pharmaceutics, 2023).
# Test system: CNV area
# Details: daily injections; cited from earlier work
# Excerpt: When systemically administered in vivo, differences in the distribution and bioavailability of D-ALG and free ALG-1001 peptide could be better elucidated. Fluorescently labeled D-ALG was detectable in the CNV area up to 4 days after intraperitoneal injection; on the other hand, free ALG-1001 signal was undetectable after day 2. The increased residence time at the target area allowed for less frequent injections for D-ALG.
substance,measurement,value
"CGRP peptides: calcitonin gene-related peptide (ref 77) (ACDTATCVTHRLAGLLSRSGGVVKNNFVPTNVGSKAF; Calcitonin gene-related peptide 1; UniProt P06881 83-119, looked up)",CNV area reduction,30%
